# Measurements reported in paper PMC8284666, “Biochemical characterization of protease activity of Nsp3 from SARS-CoV-2 and its inhibition by nanobodies” (PLoS ONE, 2021).
# Assays:
# [1] = target: PLpro from SARS-CoV-2 (Severe acute respiratory syndrome coronavirus 2, UniProt P0DTC1); experiment: biochemical; settings: read-out: percentage inhibition in the HTS
# [2] = target: PLpro (Severe acute respiratory syndrome coronavirus 2, UniProt P0DTC1); settings: result in words
compound,measurement,setting,value
Nc1nc2nc[nH]c2c(=S)[nH]1 [Thioguanine],inhibition at 10 µM,[1],> 50%
same,inhibition of PLpro in the orthogonal gel-based assay,[2],could not observe inhibition
